Measurements from patent publication US20070258889A1, “NOVEL NANOPARTICLES AND USE THEREOF” (Montana State University, priority 2005, published 2007).

Legend:
[1] = test system: non-cancerous T cells; test: FACS control experiment with non-cancerous T cells; format: cell-based; details: fluorescein labeled cages
Protocol: Fluorescence activated cell sorting (FACS) analysis of C32 cell s incubated with fluorescein conjugated RGD4C-Fn. Flow cytometry was performed on a FACSCalibur, (Becton Dickinson, Mountain View, Calif.) and analyzed using Cell Quest software (Becton Dickinson, Mountain View, Calif.). In order to perform the analysis, C32 cells were non-enzymatically removed from cell culture dishes by DPBS (without Ca2+ and Mg2+) with 1% ethylenediaminetetraacetic acid (EDTA), washed once with serum containing MEME and then suspended in DPBS (with Ca2+ and Mg2+). The cells were incubated with fluorescently labeled protein cages (normalized to 2 μM fluorescein) in DPBS (with Ca2+ and Mg2+) at a concentration of 2.5×10^6 cell/ml on ice for 20 min. After the incubation, the cells were washed 2 times with DPBS (with Ca2+ and Mg2+) and then resuspended in DPBS (with Ca2+ and Mg2+).

[2] = test system: C32 cells; test: Cell targeting assay of mineralized RGD4C-Fn (TEM of thin-sectioned C32 cells); format: cell-based, Human; details: mineralized cages 3000 Fe/cage, 200 μg/ml, 37° C., 30 min
Protocol: Cell targeting assay of mineralized RGD4C-Fn. The mineralized RGD4C-Fn with a loading factor of 3000 Fe/cage was used to evaluate the ability of the protein cage to target cancer cells. […] C32 cells were cultured in a six-well polystyrene plate. After 2 days of incubation, MEME was removed from the well followed by addition of 1 ml of mineralized protein (200 μg/ml) in Dulbecco's Phosphate Buffered Saline (DPBS) and then incubated at 37° C. for 30 min. After the incubation, the solution was aspirated and washed 2 times with DPBS. Cells were fixed in 3% glutalaldehyde in 0.1 M potassium sodium phosphate buffer (PSPB) at pH 7.2 for 10 min at room temperature. Following removal of gultalaldehyde, 1 ml DPBS was added and cells were scraped using a rubber policeman and then centrifuged. Cell pellets were mixed with 50 μl of 4% agar solution and allowed to solidify. Agar pellets were then placed in 3% gultalaldehyde in PSPB overnight at 4° C. Glutalaldehyde was removed and pellets were rinsed 2× with PSPB for 10 min each time. The pellets were then fixed for 4 h at room temperature followed by dehydrations steps of 50%, 50%, 70%, 95%, 100%, 100% and 100% ethanol for 10 min each. […] The surface length of the cells were measured and the number of iron oxide clusters were counted on each image, to estimate the number of cluster per μm of cell surface.

## HFn: human H-chain ferritin cage, non-targeted control
[1]
  Geo. mean fluorescence intensity value of non-cancerous T cells: 25
[2]
  number density of iron oxide clusters on cell surface, lower than for cells incubated with RGD4C-Fn cages: roughly 50%
